Values quoted from earlier work in patent US20160022811A1 (Teva Pharmaceutical Industries Ltd., priority 2013, published 2016).

Tests used:
[1] = tested on: relapsing-remitting MS (RRMS); conditions: registration trials, comparison with placebo
MS = conditions: at one year

Molecule	reduction of relapse rate [1]	number of new and newly enlarged T2 lesions on MRI scans (MS)
Avonex: IFN beta-1a, FDA-approved drug for RRMS (protein, UniProt P01574 22-187, looked up, interferon beta-1a, IFN beta-1a, FDA-approved drug for RRMS) Interferon beta: MSYNLLGFLQRSSNFQCQKLLWQLNGRLEYCLKDRMNFDIPEEIKQLQQFQKEDAALTIYEMLQNIFAIFRQDSSSTGWNETIVENLLANVYHQINHLKTVLEEKLEKEDFTRGKLMSSLHLKRYYGRILHYLKAKEYSHCAWTIVRVEILRNFYFINRLTGYLRN	about one third	2.6
Rebif: IFN beta-1a, FDA-approved drug for RRMS (protein, UniProt P01574 22-187, looked up, interferon beta-1a, IFN beta-1a, FDA-approved drug for RRMS) Interferon beta: MSYNLLGFLQRSSNFQCQKLLWQLNGRLEYCLKDRMNFDIPEEIKQLQQFQKEDAALTIYEMLQNIFAIFRQDSSSTGWNETIVENLLANVYHQINHLKTVLEEKLEKEDFTRGKLMSSLHLKRYYGRILHYLKAKEYSHCAWTIVRVEILRNFYFINRLTGYLRN	about one third	
